{
  "source": "ChEMBL document CHEMBL1156999",
  "about": "“Synthesis and preliminary pharmacological characterisation of a new class of nitrogen-containing bisphosphonates (N-BPs)” (Bioorg Med Chem, 2010)",
  "data": [
    {"test_system": "Aorta", "experiment": "Vasodilatory activity in Wistar rat endothelium-intact thoracic aortic strip assessed as inhibition of phenylephrine-induced contraction after 120 mins", "format": "functional, tissue-based", "details": "in the assay text read “endothelium-denuded” for “endothelium-intact”", "values": [
      {"smiles": "O=P(O)(O)C(O)(CCCCOc1no[n+]([O-])c1-c1ccccc1)P(=O)(O)O", "inhibition": "Dose-dependent effect"},
      {"smiles": "O=P(O)(O)C(CCCCOc1no[n+]([O-])c1S(=O)(=O)c1ccccc1)P(=O)(O)O", "inhibition": "Dose-dependent effect"},
      {"smiles": "Cc1c(CN(C)CCCC(O)(P(=O)(O)O)P(=O)(O)O)no[n+]1[O-]", "inhibition": "Dose-dependent effect"},
      {"smiles": "CN(CCCC(O)(P(=O)(O)O)P(=O)(O)O)Cc1no[n+]([O-])c1C(N)=O", "inhibition": "Dose-dependent effect"},
      {"smiles": "O=P(O)(O)C(O)(CCCCOc1no[n+]([O-])c1S(=O)(=O)c1ccccc1)P(=O)(O)O", "inhibition": "Dose-dependent effect"}
    ]}
  ]
}
